# Data published in PMC10864336.
# Biological target: 3×FLAG-Tsc13 E91A (S. cerevisiae) (UniProt Q99190)
# Experiment: co-IP; membrane fractions of yeast cells solubilized with 1% Triton X-100; immunoprecipitation with anti-FLAG M2 affinity gel at 4 °C overnight (50 mM Hepes/NaOH pH 7.5, 0.2 M sorbitol, 150 mM NaCl, 1 mM DTT); washed with buffer containing 0.1% Triton X-100; immunoblotting with anti-FLAG and …; band intensity of the immunoprecipitate relative to the input
substance,measurement,value
Elo3-6×HA (from UniProt P40319 1-345) (enzyme),"co-precipitated quantity, percent of that with WT Tsc13",21%
